Test results published in article PMC11073612 (Nature structural & molecular biology, 2022).

Columns and labels:
[1] = system: SSTR5 over SSTR2; details: reported; no reference printed with the value; cited from earlier work
[2] = system: SSTR2 N186G; experiment: BRET-based Gi3 activation assay, SSTR2 N186G; assay type: cell-based; details: HEK-293S, n=3 biological replicates
[3] = system: SSTR2 with ECL3/TM7 of SSTR4; experiment: BRET-based Gi3 activation assay, SSTR2 with ECL3/TM7 of SSTR4; assay type: cell-based; details: HEK-293S, n=3
[4] = system: SSTR1–5; details: cited from earlier work
[5] = system: SSTR2 Q187S; experiment: BRET-based Gi3 activation assay, SSTR2 Q187S; assay type: cell-based; details: HEK-293S
[6] = system: SSTR2 with ECL3/TM7 of SSTR1; experiment: BRET-based Gi3 activation assay, SSTR2 with ECL3/TM7 of SSTR1; assay type: cell-based; details: HEK-293S, n=3
[7] = system: SSTR1 S305^7.35F and Q291^6.55N; details: S305^7.35F and Q291^6.55N in SSTR1; cited from earlier work
[8] = system: SSTR2 W188G; details: Gi3 BRET, HEK-293S, n=3 biological replicates
[9] = system: SSTR2 ECL2+/4 (entire ECL2 from SSTR4); experiment: BRET-based Gi3 activation assay, SSTR2 ECL2+/4 chimera; assay type: cell-based; details: HEK-293S, n=3
[10] = system: SSTR1 Q291^6.55N; details: Q291^6.55N alone; cited from earlier work

Row | Substance | improved binding to SSTR5 over SSTR2 [1] [fold] | selectivity for SST14 over octreotide (EC50 ratio vs wild-type) [2] | G protein activation (effect of ECL3 exchange) [3] | affinity across SSTR subtypes ([4]; all SSTR subtypes, no reference printed with the statement) | Gi3 response and ligand selectivity compared to wild-type [5] | G protein activation (effect of ECL3 exchange) [6] | octreotide binding after SSTR1 double mutation [7] | ligand selectivity, SST14 vs octreotide (EC50 ratio vs wild-type) [8] | ligand selectivity of ECL2+/4 swap [9] | subtype selectivity [4] | improvement of octreotide binding to SSTR1 [10]
1 | pasireotide | 50 |  |  |  |  |  |  |  |  |  | 
2 | SST14: endogenous 14-residue somatostatin peptide (Cayman, 20809) |  | increased selectivity for SST14 over octreotide | completely abolished G protein activation | nearly identical affinity | identical Gi3 response and ligand selectivity compared to wild-type | completely abolished G protein activation |  |  |  |  | 
3 | octreotide |  |  | completely abolished G protein activation |  | identical Gi3 response and ligand selectivity compared to wild-type | completely abolished G protein activation | near-SSTR2 levels of octreotide binding | altered selectivity to be unfavorable to octreotide | selected against octreotide | SSTR2-selective | does little to improve octreotide binding to SSTR1
